Assay results reported in publication PMC5789826, “Structure-guided design of an Hsp90β N-terminal isoform-selective inhibitor” (Nature Communications, 2018).

The chains behind the UniProt entries cited, without tags or fusion partners.
UniProt P08238, whole entry: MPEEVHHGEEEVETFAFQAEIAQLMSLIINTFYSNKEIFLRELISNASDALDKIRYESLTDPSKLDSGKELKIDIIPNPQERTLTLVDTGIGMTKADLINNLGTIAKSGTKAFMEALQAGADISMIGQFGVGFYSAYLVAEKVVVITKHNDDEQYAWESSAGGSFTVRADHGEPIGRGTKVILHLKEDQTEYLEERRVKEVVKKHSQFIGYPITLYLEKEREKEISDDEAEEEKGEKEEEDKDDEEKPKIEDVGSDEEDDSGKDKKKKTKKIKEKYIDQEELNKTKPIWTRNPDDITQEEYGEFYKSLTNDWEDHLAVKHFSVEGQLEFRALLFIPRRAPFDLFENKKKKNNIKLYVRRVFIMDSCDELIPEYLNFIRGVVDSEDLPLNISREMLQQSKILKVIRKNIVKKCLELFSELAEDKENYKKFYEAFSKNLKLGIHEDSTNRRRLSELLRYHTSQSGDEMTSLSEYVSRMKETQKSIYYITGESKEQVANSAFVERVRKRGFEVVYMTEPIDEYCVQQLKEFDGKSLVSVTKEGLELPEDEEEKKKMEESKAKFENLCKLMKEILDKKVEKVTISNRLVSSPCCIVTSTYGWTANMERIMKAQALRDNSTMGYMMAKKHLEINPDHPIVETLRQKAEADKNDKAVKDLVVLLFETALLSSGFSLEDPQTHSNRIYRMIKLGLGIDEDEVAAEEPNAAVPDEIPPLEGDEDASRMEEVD

Columns and labels:
[1] = target: Hsp90β (Homo sapiens, UniProt P08238); test: Fluorescence polarization assay (FITC-GDA tracer displacement), Hsp90β; format: binding; details: for Kd: Kd Hsp90β, fluorescence polarization, apparent Kd
[2] = target: Hsp90α (Homo sapiens, UniProt P07900); test: Fluorescence polarization assay (FITC-GDA tracer displacement), Hsp90α; details: apparent Kd

Row | Kd [2] [µM] | selectivity over the other isoforms ([1]; Hsp90β versus other Hsp90 isoforms) [fold] | Structure (SMILES) | selectivity for Hsp90β ([1]; Hsp90β versus Hsp90α, from Kd values) | Kd [1] [nM] | Kd ([1]; value in nM) [nM]
1 | – | – | CC(C)c1cc(C(=O)N2Cc3ccccc3C2)c(O)cc1C=O [Compound 4] | ~ 4 fold | 350 ± 130 | 310
2 | > 100 | > 25 | CC(C)c1cc(C(=O)N2Cc3ccccc3C2)c(O)c(CO)c1O [Compound 5] | – | – | –
